Data: patent US10844349B2 (Albumedix Ltd., priority 2011, dated 2020)

Tests used:
[1] = Insoluble aggregate screening: time for A350 to increase by 0.1 AU at 65° C. (cuvette); format: physicochemical; settings: for albumin stability (time for A350 to increase by 0.1 AU) with increasing sodium concentration: albumins and variants; for effect of increasing sodium levels on stability: 65° C.
[2] = Soluble aggregates (remaining monomer) by GP-HPLC after 40° C. for 4 weeks; format: physicochemical; settings: Example 5; albumin 100-250 mg/mL, pH 6.5, 40° C. for 4 weeks
Experimental: The samples were then aseptically filtered (0.22 μm filter) into sterile 5 mL glass vials and the vials placed in a 40° C. incubator for 4 weeks. An aliquot from each sample was taken out at intervals, diluted to 40 g/L with water and assayed for soluble aggregates by GP-HPLC as per Example 4.

| Substance | albumin stability (time for A350 to increase by 0.1 AU) with increasing sodium concentration ([1]; Example 9, pH 6.5, 65° C.) | overall stability compared with HSA ([1]; Example 9, pH 6.5, 65° C.) | effect of increasing sodium levels on stability ([1]; Example 1, albumin 10 mg/mL, 25 mM phosphate) | effect of increasing sodium levels on stability ([1]; Example 2, around 200 mM sodium, pH 6.0-7.0, albumin 10 mg/mL) | monomer content with increasing sodium content [2] | optimum sodium ion concentration [2] [mM] |
| --- | --- | --- | --- | --- | --- | --- |
| Mature mouse serum albumin: mouse serum albumin, SEQ ID No: 19 | clear trend of increasing stability with increasing sodium concentration at and above 200 mM | not as high as HSA, or HSA variants | – | – | – | – |
| wild type human serum albumin: mature HSA (SEQ ID NO: 2), spiked with octanoate equivalent to 4 mM at 100 g/L | observed stability increase with sodium is also valid at this level of octanoate | – | – | – | – | – |
| albumin: recombinant human albumin (batch 1401 in Examples 1-4; purified low-octanoate albumin in Examples 5-11) | – | – | large increase in stability between 145 and 300 mM sodium | sudden increase in stability | clear correlation of increasing monomer content | ≥ 200 |
